According to ChEMBL document CHEMBL5352402, “Discovery of novel non-nucleoside inhibitors with high potency and selectivity for DNA methyltransferase 3A” (Eur J Med Chem, 2022):

How the values were obtained:
Homo sapiens [1] = species: Homo sapiens; test: (§1) Selectivity index, ratio of IC50 for inhibition of N-terminal GST-tagged full-length recombinant human DNMT1 to IC50 for inhibition of N-terminal His-tagged human DNMT3A (623 to 912 residues)/N-terminal GST-tagged human DNMT3L (160 to 387 residues) co-expressed in baculovirus infected Sf9 cells
Homo sapiens [2] = species: Homo sapiens; test: Selectivity index, ratio of IC50 for inhibition of N-terminal His-tagged human DNMT3B (564 to 853 residues)/N-terminal GST-tagged human DNMT3L (160 to 387 residues) co-expressed in baculovirus infected Sf9 cells to IC50 for inhibition of N-terminal His-tagged human DNMT3A (623 to 912 residues)/N-terminal GST-tagged human DNMT3L (160 to 387 residues) co-expressed in baculovirus infected Sf9 cells
Homo sapiens [3] = species: Homo sapiens; test: as §1, with “GST-tagged” for “GST-tagged full-length recombinant”, “G9a expressed in baculovirus infected Sf9 cells” for “DNMT1”
[4] = target: DNA (cytosine-5)-methyltransferase 3A (Homo sapiens) (UniProt Q9Y6K1); test: Inhibition of DNMT3A in human HCT-116 cells assessed as fold increase in p53 protein level at 1 uM incubated for 72 hrs by Western blot analysis relative to control; format: cell-based

fold change (FC) [4]: 3
SMILES: Cc1oc2ncn(CCN(C)C)c(=O)c2c1C(=O)Nc1ccc(S(N)(=O)=O)nc1
Ratio IC50 (Homo sapiens [1]): 27.9
Ratio IC50 (Homo sapiens [2]): 293
Ratio IC50 (Homo sapiens [3]): > 667

fold change (FC) [4]: 3
SMILES: Cc1oc2ncn(CCN3CCCCC3)c(=O)c2c1C(=O)Nc1ccc(S(N)(=O)=O)nc1
Ratio IC50 (Homo sapiens [1]): 73.1
Ratio IC50 (Homo sapiens [2]): > 143
Ratio IC50 (Homo sapiens [3]): > 714

SMILES: Cc1oc2ncn(CCCN3CCCCC3)c(=O)c2c1C(=O)Nc1ccc(S(N)(=O)=O)nc1
Ratio IC50 (Homo sapiens [1]): 12.2
Ratio IC50 (Homo sapiens [2]): 49.8
Ratio IC50 (Homo sapiens [3]): 11.5

fold change (FC) [4]: 3
SMILES: Cc1oc2ncn(CCN3CCCC3)c(=O)c2c1C(=O)Nc1ccc(S(N)(=O)=O)nc1
Ratio IC50 (Homo sapiens [1]): 33.3
Ratio IC50 (Homo sapiens [2]): 269
Ratio IC50 (Homo sapiens [3]): > 1000

SMILES: Cc1oc2ncn(CCCN3CCCC3)c(=O)c2c1C(=O)Nc1ccc(S(N)(=O)=O)nc1
Ratio IC50 (Homo sapiens [1]): 5.3
Ratio IC50 (Homo sapiens [2]): 66.7
Ratio IC50 (Homo sapiens [3]): 171

One block for each compound: values may come before it.
